Data on one substance can be found in patent US20090305950A1.

Chains of the proteins cited; added tags and fusions are not shown. Residues count along the entry.
UniProt Q9NZQ7, 19-239 limits assumed: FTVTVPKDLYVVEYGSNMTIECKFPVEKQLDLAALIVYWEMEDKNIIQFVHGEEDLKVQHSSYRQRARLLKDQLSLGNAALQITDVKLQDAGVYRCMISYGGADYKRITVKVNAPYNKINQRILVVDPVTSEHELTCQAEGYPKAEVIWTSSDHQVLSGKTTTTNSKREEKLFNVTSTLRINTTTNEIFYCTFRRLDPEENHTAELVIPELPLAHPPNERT

The assay deals with hPD-L1/Fc (human) (UniProt Q9NZQ7). The experiment in a line: SPR (BIAcore), hPD-L1/Fc immobilised; reference is the hPD-1 monomer. (In general: SPR reads the build-up and loss of mass on a sensor chip optically.)

Regarding “hPD-1 tetramer (biotinylated hPD-1 extracellular domain bound to R-PE-streptavidin) (from UniProt Q15116 25-145; P22629 37-163)”, the increase in the binding activity, times the monomer came out at 26 times.
